Assay results published in article PMC10177590, “Canine Intestinal Organoids as a Novel In Vitro Model of Intestinal Drug Permeability: A Proof-of-Concept Study” (Cells, 2023).

Test system: canine colonoid monolayer
[1] = FITC-dextran with metoprolol, 120 min
[2] = FITC-dextran without metoprolol, 120 min

Donor (%) (FITC-dextran 200 µg/mL + metoprolol 0.4 mg/mL, AP donor pH 6.8, 0 min): 100 ± 0.0%
Donor (%) (FITC-dextran 200 µg/mL + metoprolol 0.4 mg/mL, AP donor pH 6.8, 120 min): 94.6 ± 1.4%
Receiver (%) (FITC-dextran 200 µg/mL + metoprolol 0.4 mg/mL, BL receiver pH 7.4, 0 min): 0.021 ± 0.001%
Receiver (%) (FITC-dextran 200 µg/mL + metoprolol 0.4 mg/mL, BL receiver pH 7.4, 15 min): 0.023 ± 0.001%
Receiver (%) (FITC-dextran 200 µg/mL + metoprolol 0.4 mg/mL, BL receiver pH 7.4, 30 min): 0.020 ± 0.00%
Receiver (%) (FITC-dextran 200 µg/mL + metoprolol 0.4 mg/mL, BL receiver pH 7.4, 45 min): 0.020 ± 0.00%
Receiver (%) (FITC-dextran 200 µg/mL + metoprolol 0.4 mg/mL, BL receiver pH 7.4, 60 min): 0.022 ± 0.001%
Receiver (%) (FITC-dextran 200 µg/mL + metoprolol 0.4 mg/mL, BL receiver pH 7.4, 90 min): 0.023 ± 0.00%
Receiver (%) (FITC-dextran 200 µg/mL + metoprolol 0.4 mg/mL, BL receiver pH 7.4, 120 min): 0.020 ± 0.001%
Donor (%) (FITC-dextran 200 µg/mL alone, AP donor pH 6.8, 0 min): 100 ± 0.0%
Donor (%) (FITC-dextran 200 µg/mL alone, AP donor pH 6.8, 120 min): 93.7 ± 7.8%
Receiver (%) (FITC-dextran 200 µg/mL alone, BL receiver pH 7.4, 0 min): 0.020 ± 0.001%
Receiver (%) (FITC-dextran 200 µg/mL alone, BL receiver pH 7.4, 15 min): 0.021 ± 0.003%
Receiver (%) (FITC-dextran 200 µg/mL alone, BL receiver pH 7.4, 30 min): 0.024 ± 0.004%
Receiver (%) (FITC-dextran 200 µg/mL alone, BL receiver pH 7.4, 45 min): 0.022 ± 0.002%
Receiver (%) (FITC-dextran 200 µg/mL alone, BL receiver pH 7.4, 60 min): 0.024 ± 0.003%
Receiver (%) (FITC-dextran 200 µg/mL alone, BL receiver pH 7.4, 90 min): 0.023 ± 0.004%
Receiver (%) (FITC-dextran 200 µg/mL alone, BL receiver pH 7.4, 120 min): 0.022 ± 0.002%
percentage of relative fluorescence, donor side [1]: 94.6 % RFU
percentage of relative fluorescence, receiver side [1]: < 0.02 % RFU
percentage of relative fluorescence, donor chamber [2]: 93.7 % RFU
percentage of relative fluorescence, receiver chamber [2]: < 0.02 % RFU
Substance: FITC-Dextran

Like-named read-outs stand apart in the source and are kept apart here.
